## Yeast mating assay 2: variants of the scFv Ab-95

Source: Engelhart et al. 2022 (doi:10.1038/s41597-022-01779-4), MIT Lincoln Laboratory and A-Alpha Bio; data file from the FLAb repository.

Target: peptide PDVDLGDISGINAS, taken from heptad repeat 2 (HR2) of SARS-CoV-2 spike.

Parent scFv Ab-95: VH joined to VL by the linker GGGGSGGGGSGGGGS. Changes lie in the light chain CDRs alone.
VH: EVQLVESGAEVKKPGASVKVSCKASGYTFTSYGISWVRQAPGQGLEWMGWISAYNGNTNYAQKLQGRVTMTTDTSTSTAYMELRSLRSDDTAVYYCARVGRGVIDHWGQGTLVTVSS
VL: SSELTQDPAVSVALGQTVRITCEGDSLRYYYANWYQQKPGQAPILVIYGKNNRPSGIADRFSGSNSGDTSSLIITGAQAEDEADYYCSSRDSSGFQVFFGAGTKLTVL

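The starting antibody came from a phage panning campaign against this peptide. In library AAYL52, one, two or three CDR residues were substituted; doubles and triples were drawn at random. The assay is AlphaSeq: two haploid yeast populations carry antibody and antigen on their surface. Mating (16 h, 30 °C) was followed by selection of diploids and sequencing of their barcodes. The ratio of observed to expected reads was calibrated, replicate by replicate, on BCL2-family standards whose Kd was known from biolayer interferometry. Mating was done three times.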

The parent's light chain CDRs are EGDSLRYYYAN, GKNNRPS, SSRDSSGFQVF; each variant's own CDRs replace them letter for letter. Numbers give log10(Kd / nM), so 0 is 1 nM and 3 is 1 µM. Smaller is tighter. Where no diploid with the target was found in that replicate, the entry reads "n.d.": below detection, most likely a poor binder, though not proof of it.

CDR-L1	CDR-L2	CDR-L3	log10 Kd, replicates	control signals
EGKSLRYCYAN	GKNNRPS	SCRDSSGFQVF	1.48 / 1.63 / 1.01	5/9 (3.95)
EGDSLRYYYAN	GWNNRPS	SSKDSSGFPVF	n.d. / 3.28 / n.d.	0/9
EGDSQRYYYAN	GKNNRPS	SSASSSGFQVF	n.d. / n.d. / 4.48	2/9 (4.20)
EGDSLRGYYAN	GKNNRPS	SSRFSGGFQVF	2.85 / 2.35 / 2.47	3/9 (3.88)
EWDSLRYYYAN	GKNNFPS	SIRDSSGFQVF	5.23 / n.d. / n.d.	2/9 (3.62)
EGDSLRYQYAN	GKNNRPS	SSSDSSGGQVF	0.72 / 0.78 / 0.26	8/9 (3.63)
EGDSLTYYPAN	GKNNRPS	SSRDESGFQVF	1.84 / 1.65 / 1.74	5/9 (3.99)
EGDSLRYLYAN	MKNNRPS	SSEDSSGFQVF	4.25 / n.d. / n.d.	4/9 (3.83)
EGDSTRYYYAN	GKNNRPT	SSGDSSGFQVF	3.33 / n.d. / 2.95	3/9 (3.36)
PGDSLRYYYAN	GKNNRPS	SSTDSSGFKVF	n.d. / n.d. / n.d.	0/9
EGDSLRRYYAN	GKNNRPS	SSRDSSYFQVM	3.68 / 3.74 / n.d.	3/9 (3.87)
EGDSLGYYYAL	GKNNRPS	SSRSSSGFQVF	n.d. / n.d. / n.d.	0/9
EGDSLRYYQAN	GKFNRPS	SSRDSSGFQVF	2.86 / 2.76 / 2.62	4/9 (3.95)
EGDRLNYYYAN	CKNNRPS	SSRDSSGFQVF	3.12 / 3.73 / n.d.	0/9
EGDSLRYYYAN	GGNNRTS	SSRFSSGFQVF	4.64 / 3.49 / 2.71	3/9 (3.98)
EGDSLRVYYAN	GKNNQPS	SSRDSSGFQCF	4.62 / n.d. / n.d.	7/9 (4.08)
EGDSLRYSYAN	GKNNLPS	SSRDSSDFQVF	1.23 / 1.14 / 0.32	0/9
EGDSLRYYCAN	GKNNRPS	SSRYSSGFQVY	1.88 / 2.50 / 2.40	1/9 (3.31)
EGDSLYYYYAN	GINNRPS	SSRDSSGAQVF	3.26 / 2.95 / 2.59	0/9
EGDSLRYYYAN	SKNNRPS	SSRDSWGFQVQ	4.78 / 6.01 / n.d.	5/9 (3.97)
EGDSLIYYYAN	GKNNRPS	SSRYNSGFQVF	3.82 / 3.12 / 3.76	2/9 (3.37)
EGDVLRYYYAN	GKNNYLS	SSRDSSGFQVF	5.00 / n.d. / n.d.	3/9 (3.53)
EGDSARYYYAN	VKNNRPQ	SSRDSSGFQVF	n.d. / n.d. / n.d.	4/9 (3.60)
EGFSLRYYYAN	GKNNRWS	SSRDSSGFNVF	5.36 / n.d. / 3.37	1/9 (5.53)
EGDSLRYYEAN	GKNNRPS	SSRDSNRFQVF	2.71 / 2.73 / 3.18	3/9 (3.69)
EGDSLRVYYAN	GKNNRHS	SGRDSSGFQVF	3.72 / n.d. / 2.77	4/9 (3.57)
EGDSARYYYAN	GKNNVPS	SSRDSVGFQVF	n.d. / n.d. / n.d.	2/9 (3.66)
EVDSLRYYYAN	SKDNRPS	SSRDSSGFQVF	n.d. / 3.58 / 3.71	4/9 (3.74)
EGDSLRYYYAN	GKNNRPS	SWRDSLGFDVF	2.74 / 2.45 / 3.71	2/9 (3.13)
EGDSLRYYYAN	GYGNRMS	SSRDSSGFQVF	2.32 / 2.97 / 3.81	2/9 (3.86)
EGDCLRYYYAN	CKNNRPS	SSRDSSGFQVF	n.d. / 4.24 / 4.28	3/9 (3.31)
EGDSLRYYYAN	GINNRGS	SSRDYSGFQVF	3.64 / 3.41 / 2.87	4/9 (4.05)
ECDSLVYTYAN	GKNNRPS	SSRDSSGFQVF	3.51 / 3.32 / 2.74	3/9 (4.76)
EGDSLRCYYAN	GKNNRQS	SSRDSSGFSVF	4.06 / 5.33 / 3.81	2/9 (4.21)
EGDSTRYYYAN	GKPNRPS	SSRDSSGFQVF	n.d. / n.d. / n.d.	0/9
EGDSLRYYYAN	GKNNRPV	SIRDSEGFQVF	2.39 / 2.49 / 2.12	5/9 (3.29)
RGDSLRYYYAN	GDNNRPS	SSRDSCGFQVF	2.38 / 2.12 / 1.82	6/9 (3.67)
EGDSLRYEYAN	GKNNRPS	SSRDSSGFTVF	2.15 / 1.69 / 1.31	4/9 (3.74)
EGLSLRYEYAN	LKNNRPS	SSRDSSGFQVF	n.d. / 4.19 / n.d.	2/9 (3.90)
EGDSLFYYYAM	GKVNRPS	SSRDSSGFQVF	3.27 / 4.32 / n.d.	3/9 (3.52)
EGDSLRYYYAN	GKNHNPS	SSRDSSGFQVF	2.26 / 1.63 / 1.18	0/9
EGDSLRYYYAN	GKNNRSI	SSRDSSGFQVV	3.38 / 2.99 / 2.69	2/9 (2.97)
EGDSLRWYYAD	GKNNRYS	SSRDSSGFQVF	n.d. / n.d. / n.d.	2/9 (4.15)
EYDSLRYYYAD	GKDNRPS	SSRDSSGFQVF	3.17 / n.d. / n.d.	5/9 (4.21)
LGDSLRYYYAN	GHNNRPS	SSRDSSGFQKF	3.58 / 4.19 / 3.95	1/9 (3.42)
EGDSLRYYYRN	GHNNRPS	SSRDSSGWQVF	3.14 / 3.77 / 3.48	2/9 (2.76)
EGDSLRYYYAN	GKNFRPS	SSRSSSGFQVF	2.59 / 2.87 / 2.57	4/9 (4.01)
EADSLGYQYAN	GKNNRPS	SSRDSSGFQVF	1.83 / 1.65 / 1.33	6/9 (3.94)
EGDSLRYYGAN	GKNNRPS	SSHDPSGFQVF	3.67 / 4.52 / n.d.	0/9
EGDSLRYYYAY	GKNNRPS	SSRDSLEFQVF	n.d. / 3.94 / 4.13	3/9 (3.88)
EGDSLRYYIAN	GKNNRPC	SSRDSFGFQVF	n.d. / 5.35 / n.d.	5/9 (3.93)

A selection of 5 entries from above:

| CDR-L1 | CDR-L2 | CDR-L3 | log10 Kd, replicates | control signals |
|---|---|---|---|---|
| EGDSLRYYCAN | GKNNRPS | SSRYSSGFQVY | 1.88 / 2.50 / 2.40 | 1/9 (3.31) |
| EGDSLRYYYAN | GKNNRPV | SIRDSEGFQVF | 2.39 / 2.49 / 2.12 | 5/9 (3.29) |
| EGDSLRCYYAN | GKNNRQS | SSRDSSGFSVF | 4.06 / 5.33 / 3.81 | 2/9 (4.21) |
| RGDSLRYYYAN | GDNNRPS | SSRDSCGFQVF | 2.38 / 2.12 / 1.82 | 6/9 (3.67) |
| EGDSLRYYYAN | GGNNRTS | SSRFSSGFQVF | 4.64 / 3.49 / 2.71 | 3/9 (3.98) |

As a blank, each scFv also met three strains without target: over library AAYL52, 28% of these pairings were detected, typically at 3.91 and seldom below 2.90. The control count says in how many pairings with the empty strains this scFv gave a signal, with their mean in brackets. Parent in this assay: reference entry 2.31, copy in this library 2.25.